Here are results for 1 substance from patent publication US20050218079A1, “Poly-beta-carboxyacrylamide polymer, use thereof and process for preparing the same” (priority 2002, published 2005).

The data set relates to Vibrio fischeri.

In the case of “poly-β-carboxyacrylamide polymer [compound of formula (I)]”, the toxicity verdict result is “non-toxic”.
